From paper PMC2913404 (Neurobiology of disease, 2010) come the findings set out here.

Protein sequences, listed by entry. Tags and fused reporters are not part of them. Residues count along the entry.
UniProt P05067, 672-713 limits assumed: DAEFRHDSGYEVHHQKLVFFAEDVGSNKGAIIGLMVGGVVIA
UniProt P05067, 672-711 limits assumed: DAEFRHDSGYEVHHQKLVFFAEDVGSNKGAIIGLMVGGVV

Assay [1] concerns the target Aβ1–42 amyloid (Homo sapiens, UniProt P05067). Briefly: Peptide binding to immobilized Aβ1–42 amyloid. The following applies: ELISA, Aβ1–42 amyloid (Fig 1A).
Assay [2] deals with Aβ1–40 amyloid (Homo sapiens, UniProt P05067). Briefly: Peptide binding to immobilized Aβ1–40 amyloid. The following applies: ELISA, same concentration range as SDPM1 (Fig 1A). (In an ELISA, binding on a coated surface is turned into a signal by an enzyme label.)
Assay [3] deals with SDPM1 / SDPM2 peptide. Nature of the assay: Serum antibody titer to SDPM1/SDPM2 after immunization. Type of assay: in vivo, mouse. The following applies: young, without adjuvant (S2A).

Turning to DWGKGGRWRLWPGASGKTEA [SDPM2], the “concentration above which binding was significant” value in assay [1] was “above 1 µM”. Besides, the “binding to Aβ1–40 amyloid” value in assay [2] is listed as “minimal binding to Aβ1–40 amyloid”. Further, the “SDPM1 titers relative to SDPM2 titers” value in assay [3] is reported as “showed the opposite trend”.
